The target of assay [1] is T1, AChE (Electric-eel EC 3.1.1.7) (Electrophorus electricus, UniProt O42275).
T1 construct: purchased Sigma Aldrich
The class given is biochemical. Conditions: pH 8; read-out: AChE ± SEM (IC50).

The chains behind the UniProt entries cited, without tags or fusion partners. Residues count along the entry.
UniProt O42275, 24-633: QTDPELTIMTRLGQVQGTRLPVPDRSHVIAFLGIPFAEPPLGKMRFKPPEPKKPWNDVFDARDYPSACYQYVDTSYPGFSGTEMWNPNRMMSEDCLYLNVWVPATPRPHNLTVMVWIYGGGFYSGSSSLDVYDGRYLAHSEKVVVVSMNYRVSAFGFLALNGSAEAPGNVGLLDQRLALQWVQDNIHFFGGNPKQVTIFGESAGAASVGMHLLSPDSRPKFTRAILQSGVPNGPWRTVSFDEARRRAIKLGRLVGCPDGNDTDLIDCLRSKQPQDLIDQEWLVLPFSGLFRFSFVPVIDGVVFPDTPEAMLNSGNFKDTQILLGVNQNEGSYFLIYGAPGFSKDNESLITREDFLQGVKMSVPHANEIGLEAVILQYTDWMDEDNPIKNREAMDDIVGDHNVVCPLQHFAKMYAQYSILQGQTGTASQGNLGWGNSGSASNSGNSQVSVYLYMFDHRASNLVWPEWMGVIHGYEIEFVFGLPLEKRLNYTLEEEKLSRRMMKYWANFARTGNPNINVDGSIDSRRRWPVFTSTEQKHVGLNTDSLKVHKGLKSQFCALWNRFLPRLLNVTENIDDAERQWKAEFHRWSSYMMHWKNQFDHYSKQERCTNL
UniProt P81908, whole entry: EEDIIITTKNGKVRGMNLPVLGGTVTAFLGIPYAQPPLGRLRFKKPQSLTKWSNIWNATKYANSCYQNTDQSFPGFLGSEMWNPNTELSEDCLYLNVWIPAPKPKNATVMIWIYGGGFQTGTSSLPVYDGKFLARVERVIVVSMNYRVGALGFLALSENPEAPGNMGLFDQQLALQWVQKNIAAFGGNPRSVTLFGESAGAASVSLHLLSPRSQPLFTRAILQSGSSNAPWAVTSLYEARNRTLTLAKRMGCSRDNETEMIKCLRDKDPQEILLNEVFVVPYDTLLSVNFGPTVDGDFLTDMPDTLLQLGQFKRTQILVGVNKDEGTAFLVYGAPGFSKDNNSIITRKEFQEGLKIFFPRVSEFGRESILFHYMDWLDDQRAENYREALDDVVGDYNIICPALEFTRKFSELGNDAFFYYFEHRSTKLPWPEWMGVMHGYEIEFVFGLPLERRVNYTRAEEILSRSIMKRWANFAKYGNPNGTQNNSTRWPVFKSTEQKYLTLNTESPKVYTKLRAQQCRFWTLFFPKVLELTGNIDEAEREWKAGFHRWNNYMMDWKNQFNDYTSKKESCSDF

The target in assay [2] is T2, BChE (horse-serum E.C 3.1.1.8) (Equus caballus, UniProt P81908).
T2 construct: purchased Sigma Aldrich; host or cells: horse serum
The assay can be described thus: Cholinesterase inhibition assay (Ellman spectrophotometric method), BChE. Conditions: standard error of mean of five assays; DTNB, pH 8.0, 25 °C; read-out: BChE ± SEM (IC50). The class given is biochemical. A general note: DTNB colorimetry detects thiols as they appear.

Experimental findings from paper PMC6130761, “Isolation, crystal structure determination and cholinesterase inhibitory potential of isotalatizidine hydrate from Delphinium denudatum” (Pharmaceutical Biology, 2016) are described below.

In general, IC50 refers to the midpoint of a concentration-inhibition curve.

As for Allanzanthane A [reference compound], the IC50 in assay [1] was 8.23 ± 0.01 µM; in assay [2], 18 ± 0.06 µM.
